The target in the assay is T1, α2-adrenoceptor (Rattus norvegicus, UniProt P22909).
T1 construct: In anaesthetized rat, a standard dose of detomidine was administered intravenously; from tissue; host or cells: whole anaesthetized rat (pupil response, in vivo)
Kind of assay: Reversal of detomidine-induced mydriasis in anaesthetized rat (α2-adrenoceptor antagonism). The format is in vivo. As to conditions: iv, read-out: α2-antagonism (ED50 vs detomidine).

Sequences of proteins named here, by UniProt entry; tags and fusion partners are left off.
UniProt P22909, whole entry: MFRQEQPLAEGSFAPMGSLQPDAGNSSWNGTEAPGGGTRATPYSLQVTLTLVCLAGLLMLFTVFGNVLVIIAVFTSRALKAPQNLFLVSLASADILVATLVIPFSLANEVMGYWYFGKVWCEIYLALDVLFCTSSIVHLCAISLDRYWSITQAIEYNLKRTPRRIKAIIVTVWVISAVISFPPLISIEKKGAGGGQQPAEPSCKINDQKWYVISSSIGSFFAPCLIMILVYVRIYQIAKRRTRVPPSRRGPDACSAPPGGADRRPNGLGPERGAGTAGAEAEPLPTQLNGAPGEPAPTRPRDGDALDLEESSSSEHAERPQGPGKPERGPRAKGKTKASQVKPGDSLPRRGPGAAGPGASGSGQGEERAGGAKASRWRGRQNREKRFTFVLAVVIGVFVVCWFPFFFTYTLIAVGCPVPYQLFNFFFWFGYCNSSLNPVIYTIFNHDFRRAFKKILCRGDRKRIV

One may read the ED50 as the dose at which the effect has come halfway, by size or by number of responders. With `CCC1(c2cnc[nH]2)Cc2ccccc2C1` [atipamezole, reference compound], the ED50 was determined as 3 µg/kg.

Values taken from patent US5292887A, “Substituted imidazole derivatives and their preparation and use” (priority 1988, dated 1994).
